This passage reports IC50 results from patent US10301371B2, “Cyclic monomer and dimer peptides having integrin antagonist activity” (Protagonist Therapeutics, Inc., priority 2014, dated 2019).

In this test the target is T1, rh integrin α4β7 (Homo sapiens, UniProt P13612+P26010, DEL724-798).
T1 construct: purchased R&D Systems 5397-A30
T1 sequence (P13612 34-977 limits assumed): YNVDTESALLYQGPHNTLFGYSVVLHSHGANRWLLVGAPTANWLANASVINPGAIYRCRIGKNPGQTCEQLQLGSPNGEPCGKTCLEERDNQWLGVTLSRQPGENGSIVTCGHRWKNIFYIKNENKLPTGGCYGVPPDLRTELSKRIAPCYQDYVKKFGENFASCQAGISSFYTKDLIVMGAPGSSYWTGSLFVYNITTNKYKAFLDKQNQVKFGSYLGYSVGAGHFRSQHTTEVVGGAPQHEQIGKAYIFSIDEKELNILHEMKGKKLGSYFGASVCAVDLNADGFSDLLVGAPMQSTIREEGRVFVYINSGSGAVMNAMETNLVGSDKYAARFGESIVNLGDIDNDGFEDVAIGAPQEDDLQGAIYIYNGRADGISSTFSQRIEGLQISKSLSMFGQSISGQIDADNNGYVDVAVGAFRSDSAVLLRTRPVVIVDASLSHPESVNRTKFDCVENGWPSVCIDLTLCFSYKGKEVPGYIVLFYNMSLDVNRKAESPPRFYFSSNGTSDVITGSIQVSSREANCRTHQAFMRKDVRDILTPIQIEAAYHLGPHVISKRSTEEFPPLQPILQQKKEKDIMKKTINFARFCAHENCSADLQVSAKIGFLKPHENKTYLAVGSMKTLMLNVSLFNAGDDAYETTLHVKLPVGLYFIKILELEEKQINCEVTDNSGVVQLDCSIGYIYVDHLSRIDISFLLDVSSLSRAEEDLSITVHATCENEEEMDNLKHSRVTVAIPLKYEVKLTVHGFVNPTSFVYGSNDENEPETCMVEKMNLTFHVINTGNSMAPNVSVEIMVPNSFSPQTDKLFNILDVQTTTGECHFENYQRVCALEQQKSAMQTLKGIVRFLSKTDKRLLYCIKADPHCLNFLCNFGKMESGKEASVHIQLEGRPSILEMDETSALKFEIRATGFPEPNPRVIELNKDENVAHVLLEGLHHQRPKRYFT
T1 sequence (P26010 20-723 limits assumed): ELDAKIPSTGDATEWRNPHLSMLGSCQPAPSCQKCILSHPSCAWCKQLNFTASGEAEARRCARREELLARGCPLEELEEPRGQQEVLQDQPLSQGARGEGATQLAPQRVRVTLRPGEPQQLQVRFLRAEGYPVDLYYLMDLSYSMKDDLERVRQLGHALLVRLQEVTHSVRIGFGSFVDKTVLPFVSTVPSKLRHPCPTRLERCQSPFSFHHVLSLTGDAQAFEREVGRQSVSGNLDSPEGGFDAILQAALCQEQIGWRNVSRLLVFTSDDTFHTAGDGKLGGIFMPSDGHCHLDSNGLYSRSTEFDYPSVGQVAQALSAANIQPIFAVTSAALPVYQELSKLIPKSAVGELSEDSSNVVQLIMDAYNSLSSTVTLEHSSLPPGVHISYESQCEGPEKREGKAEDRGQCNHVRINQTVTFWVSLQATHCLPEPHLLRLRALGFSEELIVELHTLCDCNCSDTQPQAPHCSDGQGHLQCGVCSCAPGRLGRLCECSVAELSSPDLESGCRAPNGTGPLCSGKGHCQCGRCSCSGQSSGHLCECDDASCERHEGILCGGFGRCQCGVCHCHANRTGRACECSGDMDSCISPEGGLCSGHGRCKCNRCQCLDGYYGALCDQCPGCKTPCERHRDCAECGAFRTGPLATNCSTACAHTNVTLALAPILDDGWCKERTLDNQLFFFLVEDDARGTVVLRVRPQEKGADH
Briefly: α4β7-MAdCAM Competition ELISA. The class given is binding. The note with it: potency, read-out: ELISA a4b7. The protocol:
α4β7-MAdCAM Competition ELISA
A nickel coated plate (Pierce #15442) is coated with rh integrin α4β7 (R&D Systems #5397-A30) at 800 ng/well and incubated at room temperature with shaking for 1 hr. The solution iss then remove by shaking and blocked with assay buffer (50 mM Tris-HCl pH7.6, 150 mM NaCl, 1 mM MnCl2 or MgCl2, 0.05% Tween-20 and 0.5% BSA) at 250 ul/well. The plate was then incubated at room temperature for 1 hr. Each well was washed 3 times with wash buffer (50 mM Tris-HCl pH7.6, 100 mM NaCl, 1 mM MnCl2 or MgCl2, 0.05% Tween-20). To each well was added 25 ul of a serial dilution (3-fold dilutions in assay buffer) of peptides starting at 20 μM. 25 ul of recombinant human MAdCAM-1 (R&D Systems #6056-MC) was then added to each well at a fixed concentration 20 nM. The final starting peptide concentration was 10 μM, and the final MAdCAM-1 concentration was 10 nM. The plates were then incubated at room temperature for 1 hr to reach binding equilibrium. The wells were then washed three times with wash buffer. 50 ul of mouse antihuman IgG1-HRP (Invitrogen # A10648) diluted in 1:2000 in assay buffer was then added to each well. The wells are incubated at room temperature for 45 min with shaking. The wells were then washed 3 times with wash buffer. 100 ul of TMB were then added to each well and closely observe during development time. The reaction was stopped with 2N H2SO4 and absorbance was read at 450 nm.
In general terms: In an ELISA, binding on a coated surface is turned into a signal by an enzyme label.
As for `CC(C)C[C@@H]1NC(=O)[C@H]([C@@H](C)O)NC(=O)[C@H](CC(=O)O)NC(=O)[C@H](CO)NC(=O)[C@H](CCCNC(=N)N)N(C)C(=O)[C@@H](C)NC(=O)[C@@H](C)NC1=O` [compound 477], the IC50 is 100 to 1000 nM.

For `CC(C)C[C@@H]1NC(=O)[C@H]([C@@H](C)O)NC(=O)[C@H](CC(=O)O)NC(=O)[C@H](CO)NC(=O)[C@H](CCCNC(=N)N)N(C)C(=O)[C@@H](C)NC(=O)[C@@H](CC(N)=O)NC1=O` [compound 479], the IC50 was 100 to 1000 nM.

As to `CC(C)C[C@@H]1NC(=O)[C@H]([C@@H](C)O)NC(=O)[C@H](CC(=O)O)NC(=O)[C@H](CO)NC(=O)[C@H](CCCNC(=N)N)N(C)C(=O)[C@@H](C)NC(=O)[C@@H](CCC(=O)O)NC1=O` [compound 484], the IC50 lay in the range of 100 to 1000 nM.

For `CC(C)C[C@@H]1NC(=O)[C@H]([C@@H](C)O)NC(=O)[C@H](CC(=O)O)NC(=O)[C@H](CO)NC(=O)[C@H](CCCNC(=N)N)N(C)C(=O)[C@@H](Cc2ccccc2)NC(=O)[C@@H](C)NC1=O` [compound 495], the IC50 lay in the range of 100 to 1000 nM.
